Experimental findings from patent publication US20090137572A1, “2-substituted-4-heteroaryl-pyrimidines useful for the treatment of proliferative disorders” (priority 2004, published 2009) are described below.

By UniProt entry, the sequences of proteins in these tests, tags left out. Where a name states a change or a piece, a line headed by the entry shows the natural chain unless it says otherwise. Residues count along the entry.
UniProt P36888, 27-993, species assumed: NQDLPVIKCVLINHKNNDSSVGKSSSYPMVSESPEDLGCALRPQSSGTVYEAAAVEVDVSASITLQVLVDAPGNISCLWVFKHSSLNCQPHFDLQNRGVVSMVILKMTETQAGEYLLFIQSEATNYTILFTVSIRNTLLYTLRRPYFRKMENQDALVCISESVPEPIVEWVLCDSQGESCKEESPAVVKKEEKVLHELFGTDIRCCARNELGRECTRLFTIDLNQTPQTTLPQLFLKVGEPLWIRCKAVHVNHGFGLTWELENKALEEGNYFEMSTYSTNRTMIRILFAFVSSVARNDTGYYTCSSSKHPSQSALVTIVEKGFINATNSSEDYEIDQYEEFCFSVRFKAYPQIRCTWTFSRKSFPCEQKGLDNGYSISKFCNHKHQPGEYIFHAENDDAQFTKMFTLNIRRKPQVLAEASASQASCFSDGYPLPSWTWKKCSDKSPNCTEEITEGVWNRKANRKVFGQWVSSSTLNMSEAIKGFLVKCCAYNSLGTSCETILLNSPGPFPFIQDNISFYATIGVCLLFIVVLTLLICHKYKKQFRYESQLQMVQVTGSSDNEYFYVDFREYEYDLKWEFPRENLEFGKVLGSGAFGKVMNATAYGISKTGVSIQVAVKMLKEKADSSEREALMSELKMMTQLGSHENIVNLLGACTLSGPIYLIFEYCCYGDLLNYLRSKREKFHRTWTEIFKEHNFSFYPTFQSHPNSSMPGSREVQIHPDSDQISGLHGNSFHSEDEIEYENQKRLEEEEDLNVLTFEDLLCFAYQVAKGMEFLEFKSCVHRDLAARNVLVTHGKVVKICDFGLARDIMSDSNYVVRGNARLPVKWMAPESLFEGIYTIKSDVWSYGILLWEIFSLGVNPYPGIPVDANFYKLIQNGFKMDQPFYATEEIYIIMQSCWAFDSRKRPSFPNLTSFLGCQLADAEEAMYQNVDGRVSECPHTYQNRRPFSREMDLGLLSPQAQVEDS
UniProt P06493, whole entry: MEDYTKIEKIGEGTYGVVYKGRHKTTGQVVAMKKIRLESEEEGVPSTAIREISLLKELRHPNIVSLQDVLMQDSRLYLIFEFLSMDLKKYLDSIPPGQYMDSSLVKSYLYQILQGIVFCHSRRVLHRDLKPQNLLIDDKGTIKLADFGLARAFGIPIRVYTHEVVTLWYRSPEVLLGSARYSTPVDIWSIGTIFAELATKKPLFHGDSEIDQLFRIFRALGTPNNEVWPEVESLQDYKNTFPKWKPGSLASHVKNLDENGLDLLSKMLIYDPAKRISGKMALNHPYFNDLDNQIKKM
UniProt P49841, whole entry, species assumed: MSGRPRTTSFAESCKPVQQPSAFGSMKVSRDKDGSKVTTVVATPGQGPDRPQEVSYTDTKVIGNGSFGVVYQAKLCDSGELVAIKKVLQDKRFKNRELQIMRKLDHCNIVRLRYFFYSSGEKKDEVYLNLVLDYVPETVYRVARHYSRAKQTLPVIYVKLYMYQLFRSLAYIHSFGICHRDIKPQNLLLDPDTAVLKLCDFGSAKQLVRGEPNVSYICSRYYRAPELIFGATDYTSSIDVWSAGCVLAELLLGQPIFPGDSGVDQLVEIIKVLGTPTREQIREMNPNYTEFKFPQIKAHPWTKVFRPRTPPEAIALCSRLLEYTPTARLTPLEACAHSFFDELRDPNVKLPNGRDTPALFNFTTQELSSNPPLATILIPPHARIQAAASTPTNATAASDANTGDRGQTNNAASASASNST
UniProt P11802: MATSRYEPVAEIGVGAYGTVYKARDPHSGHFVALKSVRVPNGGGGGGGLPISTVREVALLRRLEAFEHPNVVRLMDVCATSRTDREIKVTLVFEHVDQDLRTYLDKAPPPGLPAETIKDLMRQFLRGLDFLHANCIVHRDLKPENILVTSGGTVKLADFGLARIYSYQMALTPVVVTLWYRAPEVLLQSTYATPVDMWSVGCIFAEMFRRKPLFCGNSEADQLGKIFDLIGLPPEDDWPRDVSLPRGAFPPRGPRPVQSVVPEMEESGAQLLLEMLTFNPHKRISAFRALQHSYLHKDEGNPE
UniProt P50613: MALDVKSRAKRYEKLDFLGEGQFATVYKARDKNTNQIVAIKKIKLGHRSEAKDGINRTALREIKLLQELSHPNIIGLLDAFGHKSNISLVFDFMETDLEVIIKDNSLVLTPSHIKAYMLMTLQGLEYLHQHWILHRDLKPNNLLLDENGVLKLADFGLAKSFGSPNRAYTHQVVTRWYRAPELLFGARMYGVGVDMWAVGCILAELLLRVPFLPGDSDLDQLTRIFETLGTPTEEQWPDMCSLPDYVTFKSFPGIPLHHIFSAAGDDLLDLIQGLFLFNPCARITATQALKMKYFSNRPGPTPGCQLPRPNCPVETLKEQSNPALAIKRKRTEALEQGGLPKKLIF

Type in all cases: biochemical
The target of one assay is CDK2-cyclin A (Homo sapiens, UniProt P24941). The experiment in a line: Kinase assay (radioactive phosphate incorporation), CDK2-cyclin A. The conditions noted are these: read-out: Kinase Inhibition pIC50 CDK2-cyclin A (converted). On the procedure:
(§1) Kinase assays. The compounds of the invention above were investigated for their ability to inhibit the enzymatic activity of various protein kinases (Table 2). This was achieved by measurement of incorporation of radioactive phosphate from ATP into appropriate polypeptide substrates. Recombinant protein kinases and kinase complexes were produced or obtained commercially. Assays were performed using 96-well plates and appropriate assay buffers (typically 25 mM β-glycerophosphate, 20 mM MOPS, 5 mM EGTA, 1 mM DTT, 1 mM […], pH 7.4), into which were added 2-4 μg of active enzyme with appropriate substrates. The reactions were initiated by addition of Mg/ATP mix (15 mM MgCl2+100 μM ATP with 30-50 kBq per well of [γ-^32P]-ATP) and mixtures incubated as required at 30° C. Reactions were stopped on ice, followed by filtration through p81 filterplates or GF/C filterplates (Whatman Polyfiltronics, Kent, UK). After washing 3 times with 75 mM aq orthophosphoric acid, plates were dried, scintillant added and incorporated radioactivity measured in a scintillation counter (TopCount, Packard Instruments, Pangbourne, Berks, UK). Compounds for kinase assay were made up as 10 mM stocks in DMSO and diluted into 10% DMSO in assay buffer.

In a further assay the target is CDK2-cycline E (Homo sapiens, UniProt P24941). The experiment in a line: Kinase assay (radioactive phosphate incorporation), CDK2-cyclin E. Particulars: read-out: Kinase Inhibition pIC50 CDK2-cycline E (converted). How it is done: as §1
Assay [1] addresses T1, protein kinases (panel of Table 4) (Homo sapiens, UniProt P24941).
T1 construct: other: kinase CDK2A; ATP 100 μM; other: kinase CDK2E
The experiment in a line: Kinase selectivity profile, kinase inhibition IC50 (Table 4), ATP 100 μM. On the procedure:
For the assays shown in Table 3, the kinases were assayed at the following ATP concentrations: SAPK4, PKBΔph, GSK3b, SAPK3, CK2, MKK1, PIM2, IKKB, ERK8, and PRK2 at 5 μM; JNK, PRAK, ROCK-II, SAPK2b, CDK2, CHK1, MSK1, CSK, P70S6K, PKA, CK1, MAPKAP-K2, SGK, PKCa, PDK1, NEK 7, and MAPKAP-K3 at 20 μM; SAPK2a, LCK, AMPK, MAPK2, DYRK1a, MAPKAP-K1a, NEK-6, NEK2a, PBK, CAMK-1, SRPK-1, JNK3, MNK2, RSK2, MNK1, PKBB, and SmMLCK at 50 μM. For the assays in Table 4 the ATP concentration was 100 μM throughout.

For assay [2], the target named is Flt3 (FMS-like tyrosine kinase-3) (Homo sapiens, UniProt P36888). The experiment in a line: Kinase assay (radioactive phosphate incorporation), Flt3. Particulars: pIC50 is -log(IC50, M), read-out: Kinase Inhibition pIC50 Flt3 (converted). How it is done:
as §1

A further assay addresses CDK1-cyclin B (Homo sapiens, UniProt P06493). As to the kind of experiment: Kinase assay (radioactive phosphate incorporation), CDK1-cyclin B. Particulars: read-out: Kinase Inhibition pIC50 CDK1-cyclin B (converted). How it is done:
as §1

In the next assay the target is GSK3b (Homo sapiens, UniProt P49841). The experiment in a line: Kinase assay (radioactive phosphate incorporation), GSK-3b. The conditions noted are these: read-out: Kinase Inhibition pIC50 GSK-3b (converted). How it is done: as §1
For a further assay, the target named is CDK4-cyclin D1 (Homo sapiens, UniProt P11802). As to the kind of experiment: Kinase assay (radioactive phosphate incorporation), CDK4-cyclin D1. Particulars: read-out: Kinase Inhibition pIC50 CDK4-cyclin D1 (converted). On the procedure: as §1
For another assay, the target named is CDK7/cyclin H (Homo sapiens, UniProt P50613). As to the kind of experiment: CDK 7 assay (CTD peptide substrate). The conditions noted are these: read-out: Kinase Inhibition pIC50 CDK7-cyclin H (converted). On the procedure: as §1, with “Compounds for kinase assay were made up as 10 mM stocks in DMSO and diluted into 10% DMSO in assay buffer.” left out
CDK 7 and 9 assays. […] Microscint 40 scintillation liquid (50 μL) was added to each well, and the amount of ^32P incorporation for each sample was measured using a Packard Topcount microplate scintillation counter.

Read-outs that look alike come from different tables or passages of the source.

`CNc1nc(C)c(-c2ccnc(Nc3cccc(S(N)(=O)=O)c3)n2)s1` [Compound 19, 3-[4-(4-Methyl-2-methylamino-thiazol-5-yl)-pyrimidin-2-ylamino]-benzenesulfonamide]: the IC50 on CDK2-cyclin A was 158 nM; on CDK2-cycline E, 5.01 nM; in assay [1] (kinase CDK2A, read-out: Kinase inhibition IC50, CDK2A), 160 nM; in assay [1] (kinase CDK2E, read-out: Kinase inhibition IC50, CDK2E), 5 nM.

As to `CNc1nc(C)c(-c2ccnc(Nc3cc(OC)c(OC)c(OC)c3)n2)s1` [Compound 23, [4-(4-Methyl-2-methylamino-thiazol-5-yl)-pyrimidin-2-yl]-(3,4,5-trimethoxy-phenyl)-amine], the IC50 at CDK2-cyclin A was 1260 nM; at CDK2-cycline E, 501 nM; in assay [2], 12.6 nM.

Consider `CCNc1nc(C)c(-c2ccnc(Nc3ccc(CNC(C)=O)cc3)n2)s1` [Compound 13, N-{4-[4-(2-Ethylamino-4-methyl-thiazol-5-yl)-pyrimidin-2-ylamino]-benzyl}-acetamide], for which, on CDK2-cycline E, the IC50 is 39.8 nM.

Consider `COc1cc(Nc2nccc(-c3sc(C)nc3C)n2)cc(OC)c1OC` [Compound 25, [4-(2,4-Dimethyl-thiazol-5-yl)-pyrimidin-2-yl]-(3,4,5-trimethoxy-phenyl)-amine], for which the IC50 is 3980 nM on CDK1-cyclin B, 3980 nM at CDK2-cyclin A and 1000 nM on CDK2-cycline E.

Regarding `CC(=O)N1CCN(c2ccc(Nc3nccc(-c4sc(N)nc4C)n3)cc2)CC1` [Compound 57, 1-(4-{4-[4-(2-Amino-4-methyl-thiazol-5-yl)-pyrimidin-2-ylamino]-phenyl}-piperazin-1-yl)-ethanone], the IC50 at CDK2-cycline E and at GSK3b was 12600 nM each time.

Take `CCNc1nc(C)c(-c2ccnc(Nc3cc(OC)c(OC)c(OC)c3)n2)s1` [Compound 24, [4-(2-Ethylamino-4-methyl-thiazol-5-yl)-pyrimidin-2-yl]-(3,4,5-trimethoxy-phenyl)-amine]: the IC50 at CDK2-cyclin A was 1260 nM; at CDK2-cycline E it was 501 nM; at CDK4-cyclin D1, 1260 nM; on CDK7/cyclin H, 501 nM.
